PMC4125734 (Molecular & Cellular Proteomics : MCP, 2014)

Biological target: the molecule itself
Assay: native MS

B1: human tyrosine hydroxylase isoform 1 phosphorylated on Ser19 (TH-pS19), full stoichiometry (enzyme)
chain: not shown
modifications: phosphoserine at 19 (PRAK, full stoichiometry)
stoichiometry N: 4

B2: human tyrosine hydroxylase isoform 1 (hTH1), nonphosphorylated (enzyme)
chain: not shown
stoichiometry N: 4

B3: human tyrosine hydroxylase isoform 1 phosphorylated on both Ser19 and Ser40 (TH-pS19pS40) (enzyme)
chain: not shown
modifications: phosphoserine at 19 (PRAK) and phosphoserine at 40 (PKA), full stoichiometry
stoichiometry N: 4
